Results on 3 molecules are retold here after PubChem BioAssay AID504454 (NMMLSC, 2011).

Molecules are shown by their SMILES. The entries are a selection whose mix differs from that of the whole data set. Active and inactive are the calls of the source.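 How the source made its calls: active means response above a set limit, near 3 SD of response in nonfluorescent compounds (cut at about 42% in these data); inactive means the rest.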

For this test, the target named is Beta-2 adrenergic receptor (Homo sapiens) (UniProt P07550). As to the kind of experiment: beta2AR agonists driving receptor internalization, primary screen, cell-based, FAP fluorogen, flow cytometry (AID 504454). The following applies: Am2.2-beta2AR cells, active compounds read high, concentration not given here.
In the case of `CN(C)C(=O)c1cc([N+](=O)[O-])cc2c1-c1c(cc([N+](=O)[O-])cc1[N+](=O)[O-])C2=O`, the response is active: 67.9%.

Regarding `CC(Cc1ccc(O)cc1)NCC(O)c1cc(O)cc(O)c1` (stereo not drawn), the response is active: 44.6%.

Regarding `CC1=NCCc2c1[nH]c1ccccc21`, the response is active: 61.9%.
